Data from patent US10201586B2 (dated 2019).

Test system: thrombin generation in FVIII- or FIX-deficient or FVIII-inhibited plasma
Experiment: plasma-based thrombin generation assay (calibrated automated thrombography)
Assay type: biochemical, human

Question: For CC(=O)N[C@@H](Cc1ccccc1)C(=O)N[C@@H](CCC(N)=O)C(=O)N[C@@H](CO)C(=O)N[C@@H](CCCCN)C(=O)N(C)CC(=O)N[C@@H](CC(N)=O)C(=O)N[C@H](C(=O)N[C@@H](Cc1ccccc1)C(=O)N[C@H](C(=O)N[C@@H](Cc1ccccc1)C(=O)NCC(=O)N[C@@H](Cc1ccc(O)cc1)C(=O)N[C@@H](Cc1ccccc1)C(=O)N[C@@H](CCC(=O)O)C(=O)N[C@@H](CCCNC(=N)N)C(=O)N[C@@H](CC(C)C)C(=O)N[C@@H](CCCNC(=N)N)C(=O)N[C@@H](C)C(=O)N[C@@H](CCCCN)C(=O)N[C@@H](CC(C)C)C(N)=O)C(C)C)C(C)C, which “FVIII-equivalent activity (mU/ml) in Hem A plasma @ 1 μM peptide” value is on record?
Answer: 372 mU/ml
